Measured values: article PMC5866846 (Archives of Toxicology, 2017)

What was measured:
CYP2B6 = CYP2B6 activity in upcyte hepatocytes after treatment (probe substrate cocktail); settings: rifampicin 30 µM, 72 h, both cell strains
CYP1A2 = CYP1A2 activity in upcyte hepatocytes after treatment (probe substrate cocktail); settings: rifampicin 30 µM, 72 h, both cell strains

## CO[C@H]1/C=C/O[C@@]2(C)Oc3c(C)c(O)c4c(O)c(c(/C=N/N5CCN(C)CC5)c(O)c4c3C2=O)NC(=O)/C(C)=C\C=C\[C@H](C)[C@H](O)[C@@H](C)[C@@H](O)[C@@H](C)[C@H](OC(C)=O)[C@@H]1C [Rifa, rifampicin, reference compound]
CYP2B6
  induction of CYP2B6 activity: not induced
CYP1A2
  induction of CYP1A2 activity: not induced
